From US20160024487

T1: Lys(Dnp)-ATNATAYPRIVGG-Lys(Abz)
T1 chain: KATNATAYPRIVGGK

T2: Lys(Dnp)-ATNATARPRIVGG-Lys(Abz)
T2 chain: KATNATARPRIVGGK


Tests used:
[1] = target: human α-thrombin (FIIa), P00734
[2] = target: T1, Lys(Dnp)-ATNATAYPRIVGG-Lys(Abz)
[3] = target: T2, Lys(Dnp)-ATNATARPRIVGG-Lys(Abz)

Row | Protein | KM [1] [µM] | kcat [1] [s⁻¹] | kcat/KM [1] | FXa kcat/KM [2] [M⁻¹ s⁻¹] | FXa kcat/KM [3] [M⁻¹ s⁻¹]
1 | FX [191-194]>[MTPR]-HPC4 (protein) ANSFLEEMKKGHLERECMEETCSYEEAREVFEDSDKTNEFWNKYKDGDQCETSPCQNQGKCKDGLGEYTCTCLEGFEGKNCELFTRKLCSLDNGDCDQFCHEEQNSVVCSCARGYTLADNGKACIPTGPYPCGKQTLERRKRSVAQATSSSGEAPDSITWKPYDAADLDPTENPFDLLDFNQTQPERGDNMTPRIVGGQECKDGECPWQALLINEENEGFCGGTILSEFYILTAAHCLYQAKRFKVRVGDRNTEQEEGGEAVHEVEVVIKHNRFTKETYDFDIAVLRLKTPITFRMNVAPACLPERDWAESTLMTQKTGIVSGFGRTHEKGRQSTRLKMLEVPYVDRNSCKLSSSFIITQNMFCAGYDTKQEDACQGDSGGPHVTRFKDTYFVTGIVSWGEGCARKGKYGIYTKVTAFLKWIDRSMKTRGLPKAKSHAPEVITSSPLKDQVDPRLIDGK | 1.13 | 0.0014 | 1400 M⁻¹ s⁻¹ | – | –
2 | FX [191-194]>[NATMTPR]-HPC4 (protein) ANSFLEEMKKGHLERECMEETCSYEEAREVFEDSDKTNEFWNKYKDGDQCETSPCQNQGKCKDGLGEYTCTCLEGFEGKNCELFTRKLCSLDNGDCDQFCHEEQNSVVCSCARGYTLADNGKACIPTGPYPCGKQTLERRKRSVAQATSSSGEAPDSITWKPYDAADLDPTENPFDLLDFNQTQPERGDNNATMTPRIVGGQECKDGECPWQALLINEENEGFCGGTILSEFYILTAAHCLYQAKRFKVRVGDRNTEQEEGGEAVHEVEVVIKHNRFTKETYDFDIAVLRLKTPITFRMNVAPACLPERDWAESTLMTQKTGIVSGFGRTHEKGRQSTRLKMLEVPYVDRNSCKLSSSFIITQNMFCAGYDTKQEDACQGDSGGPHVTRFKDTYFVTGIVSWGEGCARKGKYGIYTKVTAFLKWIDRSMKTRGLPKAKSHAPEVITSSPLKDQVDPRLIDGK | – | – | No Activity | – | –
3 | Human plasma purified Factor Xa (protein) chain 1: ANSFLEEMKKGHLERECMEETCSYEEAREVFEDSDKTNEFWNKYKDGDQCETSPCQNQGKCKDGLGEYTCTCLEGFEGKNCELFTRKLCSLDNGDCDQFCHEEQNSVVCSCARGYTLADNGKACIPTGPYPCGKQTLER chain 2: IVGGQECKDGECPWQALLINEENEGFCGGTILSEFYILTAAHCLYQAKRFKVRVGDRNTEQEEGGEAVHEVEVVIKHNRFTKETYDFDIAVLRLKTPITFRMNVAPACLPERDWAESTLMTQKTGIVSGFGRTHEKGRQSTRLKMLEVPYVDRNSCKLSSSFIITQNMFCAGYDTKQEDACQGDSGGPHVTRFKDTYFVTGIVSWGEGCARKGKYGIYTKVTAFLKWIDRSMKTRGLPKAKSHAPEVITSSPLK | – | – | – | 26 | 350
